Nrf2 block – blocks Nrf2 signaling | hit rate 2.1% among 360,000 | A549 ARE-Fluc reporter, luciferase luminescence, 18-24 h | Potency, µM (doses to about 46 µM), hits mostly inhibitors; further: nearly all actives have a fitted effect of over 60% in size
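Cells were seeded and rested 2 h, then exposed to compounds for 18-24 h. CellTiter-Fluor was read first as a viability measure. BugLite was added 15 min before the final luminescent read of ARE-luciferase activity in A549 cells.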
miR-21 reporter – miR-21 reporter, rising signal | 340,000 tested, under 10 active | AID 2288 | HeLa miR-21 FLuc reporter, luciferase, 48 h | Potency, µM (titrated, usually from 38.3 µM); active = well fitted rising curve with a large enough effect; inconclusive = small, poorly fitted or top-dose-only effect; inactive = no such curve, though single readings can be large or run the other way;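 further: miR-21 action dims this reporter so a rising signal means less miR-21 action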
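Luminescence from a firefly luciferase reporter carrying a miR-21 binding site downstream, stably expressed under a CMV promoter in HeLa cells that make miR-21 endogenously, reports miRNA modulation after 48 h compound exposure up to approximately 40uM final.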
GRP78 ERSR act – induces the endoplasmic reticulum stress response in human glioma cells. Potency, µM, most hits filed as activators. U87-MG GRP78 promoter luciferase reporter, 16 h. hit rate 0.02% among 420,000; further: series mostly up to about 76 µM; nearly all actives have a fitted effect of over 35% in size
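ERSR induction read as luciferase luminescence (Bright-Glo, 10 min at room temperature) in stably transfected human U87-MG glioma cells exposed to compounds for 16 h, using GRP78 as sensor.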
A549 viability – counter-screen for Nrf2 inhibitors: cytotoxicity in A549 cells | A549 ARE-Fluc cells, CellTiter-Fluor viability, 18-24 h | hit rate 0.16% among 390,000 | Potency, µM (series often up to 46 µM), hits mostly inhibitors | AID 504648
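A549 ARE-Fluc cells in 5% FBS OPTI-MEM, 5000 cells/well, rested 2 h then exposed to compounds in concentration-response for 18-24 h at 37 °C. Viability by CellTiter-Fluor fluorescence (Ex 405/Em 525) after 30 min; luciferase luminescence (BugLite, 15 min, RT) read afterwards.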
Nrf2 activator – activators of Nrf2 (ARE) signaling; AREc32 ARE-luciferase reporter (MCF7-derived line), luminescence, 24 h; Potency, µM (highest dose often 46.1 µM), actives largely listed as activators; hit rate 0.31% among 410,000; AID 624171; further: nearly all actives have a fitted effect of over 65% in size
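AREc32_Fluc, 1000 cells/well, OPTI-MEM + 5% FBS, o/n 37 deg C 5% CO2; 23 nL cpd by pin tool, 24 hr; Steady-Glo 30 min RT, luminescence.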
Mito fusion act – blocks mitochondrial division or promotes mitochondrial fusion; hit rate 0.23% among 320,000; S. cerevisiae fusion-defective mutant growth rescue, CellTiterGlo 48 h; AID 485298; Potency, µM (highest dose often 46.1 µM), actives largely listed as activators; further: nearly all actives have a fitted effect of over 45% in size
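Growth-rescue viability read-out: after 48 h at the non-permissive 37C in glycerol/ethanol YPEG, yeast mitochondrial fusion mutants are measured by CellTiterGlo luminescence; compounds (23 nl pinned per well) restoring growth score as division inhibitors or fusion activators.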
Each line names hits and unclear results; the compound was inactive in the other large screens; ! = not confirmed by another sample. In the library only some 2.3% were active in any assay of this set; here they are far more common. Unless noted, the call rests on the fitted dose curve; in most records, active means well fitted curve in the direction sought with a large enough effect; inconclusive means small, poorly fitted or top-dose-only effect, or another doubt; inactive means no such curve, though single readings can be large; an effect the other way counts as inactive or inconclusive.

O=C(CCN=C1NS(=O)(=O)c2ccccc21)Nc1ccc(F)cc1Cl	Nrf2 block 9.2µM (no result: miR-21 reporter, Mito fusion act)
O=C(NCCCCc1ccccc1)c1nn(-c2ccccc2)nc1CO	Nrf2 block 23.1µM (no result: Mito fusion act)
Cc1ccccc1CN1CCN(CC(=O)NC(C)c2ccccc2)CC1 (stereo not drawn)	none
C=C1C(=O)OC2C=C(CO)C3OC3C3OC3(C)CC(OC(=O)/C(=C/C)COC(C)=O)C12 (stereo not drawn)	Nrf2 block 23.1µM, A549 viability inconclusive, Nrf2 activator inconclusive (no result: miR-21 reporter, Mito fusion act)
CC1CCCCN1c1nnc(NC(=O)Nc2ccccc2F)s1 (stereo not drawn)	Nrf2 block 20.6µM (no result: Mito fusion act)
Cc1ccc(S(=O)(=O)N2CCN(c3nc(-c4cccs4)nc4ncccc34)CC2)cc1	Nrf2 block 11.6µM (no result: miR-21 reporter, Nrf2 activator, Mito fusion act)
Cc1ccc(S(=O)(=O)N2CCN(c3ccnc(-c4cccs4)n3)CC2)cc1	Nrf2 block 14.6µM (no result: miR-21 reporter, GRP78 ERSR act, Nrf2 activator, Mito fusion act)
CC(=O)Nc1ccc2c(c1)C(=Nc1ccc(C)cc1)c1ccccc1-2	Nrf2 activator 12.6µM (no result: miR-21 reporter, Mito fusion act)
CCOC(=O)Nc1ccc2c(c1)C(=NO)c1ccccc1-2	Nrf2 block inconclusive (no result: miR-21 reporter, Mito fusion act)
CC(=O)Nc1ccc2c(c1)C(=Nc1ccccc1)c1ccccc1-2	Nrf2 activator 11.2µM (no result: miR-21 reporter, Mito fusion act)
CC(=O)Nc1ccc2c(c1)C(=O)c1ccccc1C2=O	Nrf2 block inconclusive
CC1(c2ccccc2)NC(=O)N(Cc2ccc([N+](=O)[O-])cc2)C1=O (stereo not drawn)	none
COc1ccccc1NC(CC(=O)c1ccccc1)C(=O)OCC(=O)c1ccc(Br)cc1 (stereo not drawn)	Nrf2 block inconclusive, Nrf2 activator 22.4µM
COc1ccccc1NC(CC(=O)c1ccccc1)C(=O)OCC(=O)c1ccc(C)c(C)c1 (stereo not drawn)	Nrf2 block inconclusive, Nrf2 activator 12.6µM
COc1ccccc1NC(CC(=O)c1ccccc1)C(=O)OCC(=O)c1ccc(C)cc1 (stereo not drawn)	Nrf2 block inconclusive
CCn1c(=O)sc2cc(NC(=O)c3cccc(OC)c3)ccc21	none (no result: Mito fusion act)
CCCn1c(=O)sc2cc(NC(=O)c3ccc(OC)c(Br)c3)ccc21	Nrf2 block 16.4µM (no result: Mito fusion act)
O=C1CC(c2ccc(Cl)c([N+](=O)[O-])c2)c2ccc3ccccc3c2N1 (stereo not drawn)	Mito fusion act 12.6µM
COc1ccc([C@H]2CC(=O)C=C(c3ccc(C(F)(F)F)c(C(F)(F)F)c3)C2)cc1OC	Nrf2 block inconclusive (no result: miR-21 reporter)
COc1ccc([C@H]2CC(=O)C=C(c3ccc(Cl)c(C(F)(F)F)c3)C2)cc1OC	Nrf2 block 16.4µM, A549 viability inconclusive (no result: miR-21 reporter)
O=[N+]([O-])c1cccc(C2=NCCC(c3ccccc3)O2)c1 (stereo not drawn)	none
CCN(C(=O)COC(=O)CCS(=O)(=O)c1ccc(C)cc1)C1CCS(=O)(=O)C1 (stereo not drawn)	none
COc1cc2cnc(-c3ccsc3)cc2cc1OC	Nrf2 activator 4.47µM (no result: miR-21 reporter, Mito fusion act)
Fc1ccc2cc(-c3ccsc3)ncc2c1	Nrf2 block inconclusive, Nrf2 activator 8.91µM (no result: miR-21 reporter, Mito fusion act)
c1cc(-c2cc3cc4c(cc3cn2)OCO4)cs1	Nrf2 block inconclusive, Nrf2 activator inconclusive (no result: miR-21 reporter, Mito fusion act)
COc1ccc(C(O)c2nccc3cc(OC)c(OC)cc23)cc1OC (stereo not drawn)	Nrf2 block 20.6µM
COc1cc(N)c(C(O)c2nccc3cc(OC)c(OC)cc23)cc1OC (stereo not drawn)	Nrf2 block inconclusive
CCOC(=O)Nc1ccc2c(CNC(C)c3ccccc3OC)cc(=O)oc2c1 (stereo not drawn)	Nrf2 block 13µM, A549 viability inconclusive
CCOC(=O)Nc1ccc2c(CN3C(=O)NC(CC)(CC)C3=O)cc(=O)oc2c1	none
CC(=O)Nc1ccc(S(=O)(=O)N(C)CC(=O)N/N=C/c2ccncc2)cc1	Mito fusion act 22.4µM
CC(=O)Nc1ccc(S(=O)(=O)N(C)CC(=O)N/N=C/c2ccc(C(=O)O)cc2)cc1	none
Cc1ccc(S(=O)(=O)N(C)CCCC(=O)Nc2ccncc2)cc1	Nrf2 block 9.2µM
C[C@]12CC[C@@H]3c4ccc(O)cc4CC[C@H]3[C@@H]1CCC2=O	Mito fusion act 5.8µM!
CC(=O)COC(=O)c1cccc(N2C(=O)C3C4C=CC(C4)C3C2=O)c1 (stereo not drawn)	none
COc1ccc(OC)c(CNC(=O)CSc2c3c(nc4cc(Cl)ccc24)CCCC3)c1	Nrf2 activator inconclusive (no result: Mito fusion act)
COc1cccc(CNC(=O)CSc2c3c(nc4ccc(Cl)cc24)CCCC3)c1OC	Nrf2 block inconclusive, Nrf2 activator 12.6µM (no result: Mito fusion act)
C=CC[C@@H](Cc1ccc(F)cc1)C(=O)OC[C@H]1CCCN1C(=O)[C@@H](CC=C)CC(=O)N[C@H](CO)Cc1ccccc1	Nrf2 block 18.4µM, A549 viability inconclusive (no result: miR-21 reporter, Mito fusion act)
C=CC[C@@H](Cc1ccc(F)cc1)C(=O)OC[C@H]1CCCN1C(=O)[C@@H](CC=C)CC(=O)N[C@@H](CO)Cc1ccccc1	Nrf2 block inconclusive (no result: miR-21 reporter, Mito fusion act)
C=CC[C@@H](Cc1ccc(F)cc1)C(=O)OC[C@H]1CCCN1C(=O)[C@H](CC=C)CC(=O)N[C@H](CO)Cc1ccccc1	Nrf2 block 23.1µM, A549 viability inconclusive (no result: miR-21 reporter, Mito fusion act)
O=C(C1COc2ccccc2O1)N1CCN(Cc2ccc(Br)cc2F)CC1 (stereo not drawn)	Nrf2 block inconclusive, Mito fusion act 11.2µM
CC(=O)Nc1ccc(Nc2nc3ccccc3nc2NS(=O)(=O)c2ccccc2)cc1	Nrf2 block inconclusive
COc1ccc(-c2nn(-c3ccccc3)cc2C(=O)N2CCN(S(=O)(=O)c3ccccc3C#N)CC2)cc1	none (no result: miR-21 reporter)
CCOC(=O)C1CCCN(S(=O)(=O)CCNC(=O)c2cccc(OC)c2)C1 (stereo not drawn)	Nrf2 block 18.4µM (no result: miR-21 reporter)
CCOC(=O)C1CCN(S(=O)(=O)CCNC(=O)c2ccccc2)CC1	none (no result: miR-21 reporter)
CCOc1ccc(CCNC(=O)C2CCN(S(=O)(=O)N3CC(C)CC(C)C3)CC2)cc1OCC (stereo not drawn)	none
COCCCN(Cc1ccccn1)S(=O)(=O)Cc1ccccc1	none (no result: Nrf2 block)
Cc1nc(C)c(-c2ccc(SCC(=O)Nc3cccc(F)c3)nn2)s1	Nrf2 block 14.6µM, A549 viability inconclusive
CC(=O)c1cccc(NC(=O)CSc2ccc(-c3sc(C)nc3C)nn2)c1	none
CCOc1ccccc1NC(=O)CSc1ccc(-c2sc(C)nc2C)nn1	Nrf2 block 20.6µM
COc1ccccc1CNC(=O)CSc1ncc(C(=O)Nc2ccccc2)c(=O)n1C	Nrf2 block inconclusive (no result: miR-21 reporter)
Nc1c(C(=O)Nc2ccc(Br)cc2)sc2nc(-c3ccco3)ccc12	Nrf2 block 13µM, A549 viability inconclusive, Nrf2 activator inconclusive

Compound activity deposited in PubChem by National Center for Advancing Translational Sciences (NCATS).
